Assay results: US9753034B2, “Process for the identification of a compound which inhibits the binding of the first bromodomain of each of human BRD-2, BRD-3, and BRD-4” (GLAXOSMITHKLINE LLC, priority 2009, dated 2017)

Chains of the proteins cited; added tags and fusions are not shown. Residues count along the entry.
UniProt P25440, 1-473: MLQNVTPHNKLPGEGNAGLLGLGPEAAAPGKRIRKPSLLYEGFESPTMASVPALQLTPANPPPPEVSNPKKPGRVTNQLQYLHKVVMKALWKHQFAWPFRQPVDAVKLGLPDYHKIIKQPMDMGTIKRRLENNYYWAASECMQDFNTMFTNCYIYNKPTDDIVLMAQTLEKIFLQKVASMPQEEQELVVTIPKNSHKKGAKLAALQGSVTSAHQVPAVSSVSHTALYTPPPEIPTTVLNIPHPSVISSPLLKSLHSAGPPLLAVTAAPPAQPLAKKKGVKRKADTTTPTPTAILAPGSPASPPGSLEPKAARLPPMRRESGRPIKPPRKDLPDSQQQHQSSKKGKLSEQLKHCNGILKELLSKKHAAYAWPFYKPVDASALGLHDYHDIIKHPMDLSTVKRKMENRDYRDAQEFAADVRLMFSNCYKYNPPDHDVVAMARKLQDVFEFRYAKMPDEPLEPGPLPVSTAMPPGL
UniProt Q15059, 1-435: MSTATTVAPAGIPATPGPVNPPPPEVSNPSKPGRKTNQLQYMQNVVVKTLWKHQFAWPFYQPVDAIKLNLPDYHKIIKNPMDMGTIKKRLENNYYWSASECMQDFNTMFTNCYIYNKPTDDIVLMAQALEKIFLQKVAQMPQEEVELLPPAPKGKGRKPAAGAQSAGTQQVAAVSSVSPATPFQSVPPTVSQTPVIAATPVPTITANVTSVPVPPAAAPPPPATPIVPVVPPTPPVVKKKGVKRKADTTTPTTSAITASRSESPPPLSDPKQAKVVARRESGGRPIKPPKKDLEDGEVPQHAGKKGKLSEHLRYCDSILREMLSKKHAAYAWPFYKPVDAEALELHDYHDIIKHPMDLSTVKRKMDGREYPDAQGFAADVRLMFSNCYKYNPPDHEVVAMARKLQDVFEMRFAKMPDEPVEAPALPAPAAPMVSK

Tests used:
[1] = molecular target: T1, Bromodomain BRD-2 (1-473) (Homo sapiens, UniProt P25440); assay: Fluorescence Anisotropy Binding Assay, BRD-2; conditions: pIC50 in the BRD-2 assay, displacement of fluorescent ligand (Reference compound K) 5 nM, BRD-2 75 nM
T1 construct: Recombinant Human Bromodomains (BRD-2 (1-473), BRD-3 (1-435) and BRD-4 (1-477)); six-His tag (N); made in house; host or cells: E. coli (pET15b vector)
Procedure: (§1) Fluorescence Anisotropy Binding Assay
(§2) All data was normalized to the mean of 16 high and 16 low control wells on each plate. A four parameter curve fit of the following form was then applied: y=a+((b−a)/(1+(10^x/10^c)^d)
(§3) Where ‘a’ is the minimum, ‘b’ is the Hill slope, ‘c’ is the pIC50 and ‘d’ is the maximum.
(§4) The His-tagged Bromodomain was extracted from E. coli cells using 0.1 mg/ml lysozyme and sonication. […] Further purification was completed by Superdex 200 prep grade size exclusion column. Purified protein was stored at −80 C in 20 mM HEPES pH 7.5 and 100 mM NaCl.
(§5) 10 μl of this reaction mixture was added using a micro multidrop to wells containing 100 nl of various concentrations of test compound or DMSO vehicle (1% final) in Greiner 384 well Black low volume microtitre plate and equilibrated in dark 60 mins at room temperature.

[2] = molecular target: T2, Bromodomain BRD-3 (1-435) (Homo sapiens, UniProt Q15059); assay: Fluorescence Anisotropy Binding Assay, BRD-3; conditions: pIC50 in the BRD-3 assay, displacement of fluorescent ligand (Reference compound K) 5 nM, BRD-3 75 nM
T2 construct: Recombinant Human Bromodomains (BRD-2 (1-473), BRD-3 (1-435) and BRD-4 (1-477)); six-His tag (N); made in house; host or cells: E. coli (pET15b vector)
Procedure: as §1, §2, §3, §4, §5

Cc1nnc2n1-c1ccccc1C(c1ccccc1)=NC2NC(=O)OCc1ccccc1 (single isomer, unassigned; (+)) [Compound (I), (+)-Phenylmethyl (1-methyl-6-phenyl-4H-[1,2,4]triazolo[4,3-a][1,4]benzodiazepin-4-yl)carbamate]
IC50 [1]: ≤ 1000 nM | IC50 [2]: ≤ 1000 nM
